Experimental findings from patent US4906655A, “Novel 1,2-cyclohexylaminoaryl amides useful as analgesic agents” (dated 1990) are described below.

By UniProt entry, the sequences of proteins in these tests, tags left out.
UniProt P41144, whole entry: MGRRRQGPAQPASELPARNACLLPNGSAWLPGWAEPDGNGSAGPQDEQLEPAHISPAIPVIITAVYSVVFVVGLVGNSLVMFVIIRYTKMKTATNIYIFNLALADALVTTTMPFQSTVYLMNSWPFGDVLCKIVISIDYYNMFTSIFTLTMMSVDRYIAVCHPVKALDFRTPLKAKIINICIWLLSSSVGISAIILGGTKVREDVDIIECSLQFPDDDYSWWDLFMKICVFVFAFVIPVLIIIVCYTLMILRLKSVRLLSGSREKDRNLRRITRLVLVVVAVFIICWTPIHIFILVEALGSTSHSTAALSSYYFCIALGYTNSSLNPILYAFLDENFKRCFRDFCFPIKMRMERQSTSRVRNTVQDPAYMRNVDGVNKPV

This is a selection: effects in other tests are not listed, and their absence says nothing.

This test has as its target kappa opioid receptor (Cavia porcellus, UniProt P41144). In words: kappa opioid receptor binding, tritiated etorphine, brain homogenates. The settings on record: monohydrochloride; for Ki: read-out: Opioid Binding ki kappa, guinea pig brain homogenates, [3H]etorphine with 200 nM DADLE and 200 nM DAGO, mean of at least two experiments in triplicate; for mu/k (mu/kappa ratio of ki): ratio of mu ki to kappa ki.

`CN(C(=O)C1Cc2cccc3cccc1c23)C1CCCCC1N1CCCC1` (single isomer, unassigned) [1a]: the inhibition constant (Ki) was 16.3 nM.
For `CN(C(=O)C1Cc2cccc3cccc1c23)C1CCCCC1N1CCCC1.Cl` (single isomer, unassigned) [1a], the mu/k (mu/kappa ratio of ki) is 161.
As for `CN(C(=O)C1Cc2cccc3cccc1c23)C1CCCCC1N1CCCC1` (single isomer, unassigned) [1b], the Ki came to 31 nM.
Turning to `CN(C(=O)C1Cc2cccc3cccc1c23)C1CCCCC1N1CCCC1.Cl` (single isomer, unassigned) [1b], the mu/k (mu/kappa ratio of ki) is 12.5.
As to `CN(C(=O)C1Cc2cccc3cccc1c23)[C@H]1CC[C@@]2(CCCO2)C[C@@H]1N1CCCC1` (single isomer, unassigned) [1e], the mu/k (mu/kappa ratio of ki) was determined as 1420 and the Ki was 0.18 nM.
As to `CN(C(=O)C1Cc2cccc3cccc1c23)[C@H]1CC[C@@]2(CCCO2)C[C@@H]1N1CCCC1` (single isomer, unassigned) [1f], the mu/k (mu/kappa ratio of ki) came out at 227 and the Ki was determined as 1.2 nM.

Usually Ki stands for a measure of affinity in units of concentration, obtained from inhibition or displacement.
